Measurements from ChEMBL document CHEMBL5352458, “Novel slow-binding reversible acetylcholinesterase inhibitors based on uracil moieties for possible treatment of myasthenia gravis and protection from organophosphate poisoning” (2023).
The source made the active and inactive calls. The calls are words filed in the database; no cut-off is given here.

Amino acid sequences for entries named in this document (tags omitted). A change or cut given only in a name is not applied to a line headed by its entry.
UniProt P06276, whole entry, looked up: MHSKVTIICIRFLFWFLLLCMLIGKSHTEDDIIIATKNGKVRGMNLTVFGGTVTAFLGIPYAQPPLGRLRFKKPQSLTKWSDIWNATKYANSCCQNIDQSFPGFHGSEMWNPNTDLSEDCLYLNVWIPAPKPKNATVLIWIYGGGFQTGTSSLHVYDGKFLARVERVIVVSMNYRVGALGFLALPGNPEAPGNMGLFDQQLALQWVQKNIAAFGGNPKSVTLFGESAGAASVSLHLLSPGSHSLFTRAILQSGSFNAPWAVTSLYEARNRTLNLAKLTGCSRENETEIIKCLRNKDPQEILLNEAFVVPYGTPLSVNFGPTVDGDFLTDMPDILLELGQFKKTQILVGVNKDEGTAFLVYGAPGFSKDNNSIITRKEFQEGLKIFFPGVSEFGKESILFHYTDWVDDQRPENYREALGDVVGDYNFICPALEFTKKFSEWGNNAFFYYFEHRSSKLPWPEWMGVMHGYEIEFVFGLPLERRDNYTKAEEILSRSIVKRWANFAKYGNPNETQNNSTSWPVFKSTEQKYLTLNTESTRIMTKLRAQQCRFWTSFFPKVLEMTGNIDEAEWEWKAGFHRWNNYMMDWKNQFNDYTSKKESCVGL
UniProt P22303: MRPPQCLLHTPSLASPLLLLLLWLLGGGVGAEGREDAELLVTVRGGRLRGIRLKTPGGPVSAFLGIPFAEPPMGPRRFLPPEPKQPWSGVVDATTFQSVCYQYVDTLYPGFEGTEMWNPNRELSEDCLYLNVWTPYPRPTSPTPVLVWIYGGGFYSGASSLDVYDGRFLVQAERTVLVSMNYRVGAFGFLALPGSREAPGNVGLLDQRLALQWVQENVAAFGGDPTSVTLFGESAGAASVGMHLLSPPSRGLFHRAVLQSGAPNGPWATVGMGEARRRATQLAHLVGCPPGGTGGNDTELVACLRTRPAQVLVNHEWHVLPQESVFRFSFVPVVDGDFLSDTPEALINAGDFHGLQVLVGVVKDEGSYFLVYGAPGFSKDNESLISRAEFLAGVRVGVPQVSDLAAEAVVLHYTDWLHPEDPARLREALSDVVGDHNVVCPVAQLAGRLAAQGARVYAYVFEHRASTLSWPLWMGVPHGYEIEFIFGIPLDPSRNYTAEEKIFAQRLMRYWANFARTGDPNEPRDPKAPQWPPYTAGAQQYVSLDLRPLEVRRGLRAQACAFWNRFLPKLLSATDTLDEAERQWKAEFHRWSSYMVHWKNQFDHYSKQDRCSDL

Assays:
[1] = target: T1, Cholinesterases; ACHE & BCHE (Homo sapiens) (UniProt P06276+P22303); test: Selectivity index, ratio of IC50 for human BChE to IC50 for human AChE
Rattus norvegicus [2] = test: Anti-experimental autoimmune myasthenia gravis activity in Wistar rat assessed as increase in amplitude decrement of action potential at 0.1 mg/kg, ip measured at 15 to 240 mins by electromyogram analysis; details: time 15-240 min
Rattus norvegicus [3] = test: Anti-experimental autoimmune myasthenia gravis activity in Wistar rat assessed as increase in amplitude decrement of action potential at 0.1 mg/kg, ip measured for 1 hrs by electromyogram analysis
[4] = target: Acetylcholinesterase (Homo sapiens) (UniProt P22303); test: Binding affinity to human AChE using ATC as substrate assessed as residence time measured for 10 mins by Ellman's method
[5] = target: Acetylcholinesterase (Homo sapiens) (UniProt P22303); test: Binding affinity to human AChE using ATC as substrate assessed as binding constant (Koff) measured for 10 mins by Ellman's method
Rattus norvegicus [6] = test: Anti-experimental autoimmune myasthenia gravis activity in Wistar rat assessed as increase in amplitude decrement of action potential at 0.01 mg/kg, ip measured for 3 hrs by electromyogram analysis
Rattus norvegicus [7] = test: Anti-experimental autoimmune myasthenia gravis activity in Wistar rat assessed as effect on force of urinary bladder contraction at 0.005 to 0.01 mg/kg, ip measured for 15 mins by electromyogram analysis; details: dose 0.005-0.01 mg/kg
[8] = target: Acetylcholinesterase (Homo sapiens) (UniProt P22303); test: Binding affinity to human AChE using ATC as substrate assessed as binding constant (Kon) measured for 10 mins by Ellman's method
Rattus norvegicus [9] = test: Anti-experimental autoimmune myasthenia gravis activity in Wistar rat assessed as increase in amplitude decrement of action potential at 0.015 mg/kg, ip measured at 15 to 240 mins by electromyogram analysis; details: time 15-240 min
[10] = target: Acetylcholinesterase (Homo sapiens) (UniProt P22303); test: Binding affinity to human AChE using ATC as substrate assessed as half life measured for 10 mins by Ellman's method
Rattus norvegicus [11] = test: Anti-experimental autoimmune myasthenia gravis activity in Wistar rat assessed as increase in amplitude decrement of action potential at 0.01 mg/kg, ip measured at 15 to 240 mins by electromyogram analysis; details: time 15-240 min
[12] = target: T1, Cholinesterases; ACHE & BCHE (Homo sapiens); test: Selectivity index, ratio of IC50 for inhibition of human plasma BChE to IC50 for inhibition of AChE in human Erythrocyte

`CC[N+](CC)(CCCCCn1c(=O)cc(C)n(CCCn2c(C)cc(=O)n(C)c2=O)c1=O)Cc1ccccc1[N+](=O)[O-]` showed a Ratio IC50 [1] of 571.

In the case of `CC[N+](CC)(CCCCCn1c(=O)cc(C)n(CCCCn2c(C)cc(=O)n(C)c2=O)c1=O)Cc1ccccc1[N+](=O)[O-]`, the Ratio IC50 [1] is reported as 45700.

In the case of `CC[N+](CC)(CCCCCn1c(=O)cc(C)n(CCCCn2c(C)cc(=O)n(C)c2=O)c1=O)Cc1ccccc1C(F)(F)F`, the Ratio IC50 [1] is reported as 200000.

In the case of `CN(C)C(=O)Oc1ccc[n+](C)c1`, the Ratio IC50 [1] is reported as 2.9, the Activity (Rattus norvegicus [2]) is reported as “Active” and the Activity (Rattus norvegicus [3]) is reported as “Active”.

With `CC[N+](CC)(CCCCCn1c(=O)cc(C)n(CCCCCCn2c(C)cc(=O)n(C)c2=O)c1=O)Cc1ccccc1C(F)(F)F` the TIME [4] was 0.31 h, the K [5] was 0.07 min⁻¹ and the Activity (Rattus norvegicus [6]) was “Active”. The Activity (Rattus norvegicus [7]) was “inactive”, the K [8] was 4.8 10^9/M/min and the Ratio IC50 [1] was 200000. The Activity (Rattus norvegicus [9]) was “Active”, the T1/2 [10] was 12.9 min and the Activity (Rattus norvegicus [11]) was “Active”.

With `CC[N+](CC)(CCCCCn1c(=O)cc(C)n(CCCCCn2c(C)cc(=O)n(C)c2=O)c1=O)Cc1ccccc1C(F)(F)F` the Ratio IC50 [1] was 120000.

With `CC[N+](CC)(CCCCCn1c(=O)cc(C)n(CCCn2c(C)cc(=O)n(C)c2=O)c1=O)Cc1ccccc1C(F)(F)F` the Ratio IC50 [1] was 220000.

For `CC[N+](CC)(CCCCCn1c(=O)cc(C)n(CCCCCCn2c(C)cc(=O)n(C)c2=O)c1=O)Cc1ccccc1[N+](=O)[O-]`, the Ratio IC50 [1] was 60000.

`CC[N+](CC)(CCCCCn1c(=O)cc(C)n(CCCCCn2c(C)cc(=O)n(C)c2=O)c1=O)Cc1ccccc1[N+](=O)[O-]` showed a Ratio IC50 [1] of 113000.

`CC[N+](CC)(CCCCCn1c(C)cc(=O)n(CCCCC[N+](CC)(CC)Cc2ccccc2)c1=O)Cc1ccccc1` gave a Ratio IC50 [12] of 66700.
